# Ab-14 heavy chain CDR variants: yeast mating affinities

Values reported by Engelhart et al. 2022, doi:10.1038/s41597-022-01779-4 (FLAb copy).

Antigen: PDVDLGDISGINAS, a 14-residue peptide of the SARS-CoV-2 spike HR2 region.

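Variants in AAYL49 differ from the parent at up to three CDR positions; double and triple changes were sampled at random. Affinity was read by AlphaSeq, a pooled yeast mating assay with surface-displayed partners. The frequency of each diploid, read from paired DNA barcodes, reflects how well the two displayed proteins bind. A regression on co-assayed BCL2-family reference pairs converts the normalised counts of each replicate to an apparent Kd. Each pool was mated in three replicate cultures.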

The variants keep the light chain, the linker and the frameworks of Ab-14 (scFv order VH, a (GGGGS)3 linker, VL).
VH: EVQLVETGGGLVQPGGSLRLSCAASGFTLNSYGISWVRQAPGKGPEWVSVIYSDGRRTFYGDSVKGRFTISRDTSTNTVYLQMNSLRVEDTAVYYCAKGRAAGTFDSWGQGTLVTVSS
VL: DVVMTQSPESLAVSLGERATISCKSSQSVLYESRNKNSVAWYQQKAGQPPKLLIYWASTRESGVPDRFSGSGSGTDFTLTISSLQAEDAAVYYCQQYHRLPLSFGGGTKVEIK

Substitutions are numbered in sequence along the VH above, starting at 1 (not Kabat). Scale: log10 of Kd in nM, estimated from mating counts; low values are strong binders. Replicates are averaged; those with no signal do not enter the mean. A pair that was not seen in any replicate is written "nd"; this usually means weak binding, but a binder can also be missed. Background: pairings of library AAYL49 with three empty control strains gave a value in 15% of cases (median 4.06, 5th percentile 2.83). Values in that range, when seen in few replicates, are hard to tell from nonspecific mating.

"log10 Kd (nM), mean",replicates with signal,changes
3.74,1/3,R57H/D62Q/S63T
5.45,1/3,Y32P/S63Y/R100W
1.88,3/3,T28E/T58L/D106K
nd,0/3,T28C/L29D/R56K
0.87,3/3,F59N/G61H
3.91,1/3,Y52F/D62Q/V64D
nd,0/3,S31A/I51K/V64T
3.51,1/3,V50W/D62N/F105G
nd,0/3,N30R/G55M/S107A
-0.24,3/3,G61S/A102G
nd,0/3,Y32F/G55H
2.53,1/3,Y52N/D62P/T104M
4.09,2/3,G26H/G33E/I51G
4.58,1/3,G103C/F105K
4.62,2/3,S53C/G103N/T104S
nd,0/3,N30M/T58C/S63C
nd,0/3,L29T/Y32R/S35Y
nd,0/3,G26K/V64N/G103C
0.51,3/3,S31E/R56V/A102I
nd,0/3,N30P/R56D/F59R
3.01,1/3,D62L/K65Q/R100P
nd,0/3,L29D/I34C/Y52M
4.22,1/3,F27H/V64T/A102C
nd,0/3,G33I/R100V
5.83,2/3,L29R/N30A/V64D
4.79,3/3,Y32V/R57I/Y60E
2.09,2/3,G26W/G103L/T104D
5.07,3/3,G26N/Y60S
4.05,3/3,Y60W/F105C
3.28,2/3,I51R/R57L/G103T
4.22,1/3,S53T/R57H/D106A
nd,0/3,G33S/S53W/G55E
nd,0/3,V64C/G99D/S107T
4.34,2/3,G26F/V50Y
5.03,1/3,G26N/I51N/S107D
3.94,2/3,S53E/Y60S/D106A
nd,0/3,R56T/Y60T/S63Y
nd,0/3,F27T/F59K/Y60K
nd,0/3,D62R/G103P/S107K
5.55,1/3,R56E/R57A/D106L
nd,0/3,G33I/V50K/D106Y
nd,0/3,Y32R/Y52F/F105W
nd,0/3,S63C/A101P/G103A
4.69,3/3,G55F/F59A/G99T
4.90,1/3,G33M/S35V
1.37,3/3,N30M/K65H/G103C
nd,0/3,S31Y/D54R/Y60W
nd,0/3,G26K/G33R/D62H
nd,0/3,G33S/Y60M/T104W
nd,0/3,S35H/D54C/S107F
nd,0/3,D54A/K65I/F105M
5.56,1/3,T58Y/V64H/A101Q
nd,0/3,Y60T/G99D/T104Q
nd,0/3,S31H/I51P/F59Q
2.32,3/3,T28M/S63F
nd,0/3,F27W/R56W/D62Y
4.56,1/3,T28C/D54I/S107A
3.21,2/3,G55S/D62G/S107T
nd,0/3,T28Y/N30M/T58F
3.85,1/3,L29Y/Y32A/S107W

The opening 7 entries, copied out:

{"changes": "R57H/D62Q/S63T", "log10 Kd (nM), mean": "3.74", "replicates with signal": "1/3"}
{"changes": "Y32P/S63Y/R100W", "log10 Kd (nM), mean": "5.45", "replicates with signal": "1/3"}
{"changes": "T28E/T58L/D106K", "log10 Kd (nM), mean": "1.88", "replicates with signal": "3/3"}
{"changes": "T28C/L29D/R56K", "log10 Kd (nM), mean": "nd", "replicates with signal": "0/3"}
{"changes": "F59N/G61H", "log10 Kd (nM), mean": "0.87", "replicates with signal": "3/3"}
{"changes": "Y52F/D62Q/V64D", "log10 Kd (nM), mean": "3.91", "replicates with signal": "1/3"}
{"changes": "S31A/I51K/V64T", "log10 Kd (nM), mean": "nd", "replicates with signal": "0/3"}